# Laboratory results taken from ChEMBL document CHEMBL1139504, “Discovery of the first potent, selective 5-hydroxytryptamine1D receptor antagonist” (J Med Chem, 2005).
# Sequences of proteins named here, by UniProt entry; tags and fusion partners are left off.
# UniProt P08908, whole entry: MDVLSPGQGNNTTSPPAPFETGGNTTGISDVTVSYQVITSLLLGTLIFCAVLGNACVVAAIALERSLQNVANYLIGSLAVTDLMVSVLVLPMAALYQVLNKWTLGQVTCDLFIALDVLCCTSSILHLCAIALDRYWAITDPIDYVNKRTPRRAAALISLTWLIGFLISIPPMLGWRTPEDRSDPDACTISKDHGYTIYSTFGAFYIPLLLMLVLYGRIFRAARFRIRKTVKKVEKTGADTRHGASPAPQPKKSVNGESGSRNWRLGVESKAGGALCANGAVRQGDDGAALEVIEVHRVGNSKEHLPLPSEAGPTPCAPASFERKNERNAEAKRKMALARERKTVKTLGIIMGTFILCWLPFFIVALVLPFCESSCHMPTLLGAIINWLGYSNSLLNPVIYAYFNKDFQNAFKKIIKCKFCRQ
# UniProt P28222, whole entry: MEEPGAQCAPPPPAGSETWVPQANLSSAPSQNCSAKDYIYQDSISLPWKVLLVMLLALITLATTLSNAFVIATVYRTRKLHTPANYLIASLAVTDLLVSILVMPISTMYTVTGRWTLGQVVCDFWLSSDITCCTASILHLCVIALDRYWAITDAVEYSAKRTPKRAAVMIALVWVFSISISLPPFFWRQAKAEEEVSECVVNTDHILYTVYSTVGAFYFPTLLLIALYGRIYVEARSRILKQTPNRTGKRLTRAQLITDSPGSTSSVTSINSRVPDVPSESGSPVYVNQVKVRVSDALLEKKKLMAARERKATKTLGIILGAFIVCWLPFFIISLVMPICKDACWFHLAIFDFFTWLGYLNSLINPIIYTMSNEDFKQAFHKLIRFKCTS
# Tests used:
# [1] = target: 5-hydroxytryptamine receptor 1A (Homo sapiens, UniProt P08908); assay: Displacement of [3H]WAY-100635 from human 5-hydroxytryptamine 1A receptor expressed in CHO cells; format: cell-based
# How it was run: (§1)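 Radioligand displacement binding on membranes of cloned human receptors. Each determination lies within 0.3 log units of the mean.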
# [2] = target: 5-hydroxytryptamine receptor 1B (Homo sapiens, UniProt P28222); assay: Displacement of [3H]5-HT from human 5-hydroxytryptamine 1B receptor expressed in CHO cells; format: cell-based; how it was run: as §1
smiles,measurement,setting,value
Cc1ccc2c(OCCN3CCC(Cc4ccc5c(c4)NC(=O)CO5)CC3)cccc2n1,Ki,[1],2.51 nM
same,Ki,[2],10 nM
